B2AR arrestin: recruits beta-arrestin to the human beta2-adrenergic receptor | Potency, µM (titrated, usually from 46.1 µM), most hits filed as activators | beta-arrestin recruitment to beta2AR, cell-based reporter | P07550 | hit rate 0.02% among 330,000; further: nearly all actives have a fitted effect of over 65% in size
miR-21 reporter: miR-21 reporter, rising signal | AID 2288 | HeLa miR-21 FLuc reporter, luciferase, 48 h | 340,000 tested, under 10 active | Potency, µM (doses to about 38.3 µM); active = well fitted rising curve with a large enough effect; inconclusive = small, poorly fitted or top-dose-only effect; inactive = no such curve, though single readings can be large or run the other way;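 note: miR-21 action dims this reporter so a rising signal means less miR-21 action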
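HeLa cells stably expressing CMV-driven firefly luciferase with a downstream miR-21 binding sequence, endogenously expressing miR-21, were treated with titrations (up to about 40uM final) for 48 hours at 37 degree Celsius. Luciferase luminescence was read after lysis.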
Nrf2 block: blocks Nrf2 signaling; A549 ARE-Fluc reporter, luciferase luminescence, 18-24 h; hit rate 2.1% among 360,000; Potency, µM (doses to about 46 µM), usual class: inhibitors; further: nearly all actives have a fitted effect of over 60% in size
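Two sequential reads on A549 ARE_Fluc cells exposed to compound for 18-24 h: a CellTiter-Fluor fluorescence read for viability, then a luciferase luminescence read for Nrf2/ARE activity.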
A549 tox: kills or reduces viability of A549 cells in Nrf2 counter-screen | A549 ARE-Fluc cells, CellTiter-Fluor viability, 18-24 h | Potency, µM (titrated, usually from 46 µM), most hits filed as inhibitors | hit rate 0.16% among 390,000
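Cytotoxicity counterscreen: CellTiter-Fluor fluorescence was measured in A549 ARE_Fluc cells after 18-24 h of compound exposure in a concentration series. The subsequent BugLite luminescent read reports ARE-luciferase activity.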
Nrf2 ARE act: activators of Nrf2 (ARE) signaling; AREc32 ARE-luciferase reporter (MCF7-derived line), luminescence, 24 h; Potency, µM (top dose mostly 46.1 µM), usual class: activators; hit rate 0.31% among 410,000; AID 624171; further: nearly all actives have a fitted effect of over 65% in size
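AREc32 cells carrying an ARE-driven firefly luciferase, 1000 cells/well in OPTI-MEM with 5% FBS, dosed after overnight attachment and incubated 24 hr at 37 deg C. Steady-Glo luminescence read after 30 min at RT.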
Numbers stand for hits; n = inactive; u = inconclusive; x = no result; [ ] = another dose, or the depositor's remark. Hits are enriched below; roughly 2.2% of the tested compounds scored in any of these assays. Unless noted, the call rests on the fitted dose curve; in most records, active means well fitted curve in the direction sought with a large enough effect; inconclusive means small, poorly fitted or top-dose-only effect, or another doubt; inactive means no such curve, though single readings can be large; an effect the other way counts as inactive or inconclusive.

SMILES | B2AR arrestin | miR-21 reporter | Nrf2 block | A549 tox | Nrf2 ARE act
CCOC(CN=c1nc(N(C)C)ss1)OCC | x | x | n | n | u
CN(C)c1nc(=NCc2ccco2)ss1 | 2.2µM | u | n | n | n
COc1ccc(C2N=C(Nc3nc4ccccc4o3)NC3=C2C(=O)CC(C)(C)C3)cc1 (centres undefined) | x | x | n | n | x
Cc1nc(N/N=C/c2ccc(O)cc2O)cc(N2CCOCC2)n1 | n | n | 21µM | n | n
Cc1nc(N/N=C/c2cccc(F)c2)cc(N2CCOCC2)n1 | n | n | n | n | n
CCc1cc2c(NCC3CCCO3)ncnc2s1 (centres undefined) | n | n | u | n | n
Cc1sc2ncnc(NCC3CCCO3)c2c1C (centres undefined) | n | n | 21µM | n | n
Nc1nn(-c2ccccc2)nc1C(=O)OCc1ccccc1Br | x | n | n | n | n
CC1(C)CC[C@]2(C(=O)O[C@@H]3O[C@H](CO)[C@@H](O)[C@H](O)[C@H]3O)CC[C@]3(C)C(=CCC4[C@@]5(C)CC[C@H](O[C@@H]6O[C@H](C(=O)O)[C@@H](O[C@H]7OC[C@@H](O)[C@@H](O)[C@@H]7O)[C@H](O)[C@H]6O)C(C)(C)C5CC[C@]43C)[C@@H]2C1 (some centres undefined) | n | x | n | n | n
CC1(C)CC[C@]2(C(=O)O)CC[C@]3(C)C(=CC[C@@H]4[C@@]5(C)CC[C@H](O[C@@H]6O[C@H](C(=O)O)[C@@H](O)[C@H](O[C@@H]7OC[C@H](O)[C@H](O)[C@H]7O)[C@H]6O)C(C)(C)[C@@H]5CC[C@]43C)[C@@H]2C1 | n | x | 21µM | u | n
O=C(Nc1nc(-c2ccccc2)cs1)c1ccccc1NS(=O)(=O)c1ccc(F)cc1 | n | u | 6.5µM | u | n
O=C(CCS(=O)(=O)c1ccccc1)Nc1nc(-c2cccs2)cs1 | n | n | n | n | u
O=C(CCS(=O)(=O)c1ccc(F)cc1)Nc1nc(-c2ccncc2)cs1 | n | n | n | n | 16µM
Cc1ccc(F)c(C2C3C=CCC(C)C3C(=O)N2Cc2ccccc2)c1 (centres undefined) | x | x | u | n | x
Cc1cccn2c(=O)c(C=O)c(N3CCN(c4ccc(F)cc4)CC3)nc12 | n | n | 16µM | n | n
Cc1cccn2c(=O)c(C=O)c(N3CCCCC3)nc12 | n | n | u | n | n
CCOC(=O)N1CCc2c(sc3c2c(=O)n(Cc2ccccc2)c(=O)n3Cc2ccccc2F)C1 | n | n | u | n | n
CC(=O)N1CCc2c(sc3c2c(=O)n(Cc2ccccc2)c(=O)n3Cc2ccccc2F)C1 | x | n | 16µM | n | n
CC(=O)N1CCc2c(sc3c2c(=O)n(Cc2ccccc2)c(=O)n3Cc2ccccc2Cl)C1 | x | n | 18µM | u | n
CCC(=NCCc1c(C)[nH]c2ccccc12)C1=C(O)CC(c2ccccc2)CC1=O (centres undefined) | n | n | n | n | n
CCC(=NCCc1c(C)[nH]c2ccc(OC(F)(F)F)cc12)C1=C(O)CC(c2ccccc2)CC1=O (centres undefined) | n | n | 21µM | u | n
CCC(=O)N1CCc2cc(Br)cc(S(=O)(=O)N(CC)Cc3ccccc3)c21 | x | n | n[9.27 µM] | n | n
CCOC(=O)C1(CCOc2ccccc2)CCN(Cc2cccc3nonc23)CC1 | n | n | 21µM | n | n
COc1ccc(-c2[nH]c(-c3ccc(OC)c(OC)c3)nc2SCC(=O)Nc2ccccc2)cc1 | x | n | 23µM | u | n
COc1cccc(-c2nc(SCC(=O)NC3CCCC3)c(-c3ccc(F)cc3)[nH]2)c1 | x | n | 18µM | u | n
SMILES | B2AR arrestin | miR-21 reporter | Nrf2 block | A549 tox | Nrf2 ARE act
COc1ccc(NC(=O)CSc2nc(-c3ccc(OC)c(OC)c3)[nH]c2-c2ccc(C)cc2)cc1 | x | n | n | n | n
COc1ccc(NC(=O)CSc2nc(-c3cccc(C)c3)[nH]c2-c2ccccc2)cc1OC | x | u | 23µM | u | n
Cc1cccc(-c2nc(SCC(=O)Nc3ccc4c(c3)OCCO4)c(-c3ccccc3)[nH]2)c1 | x | u | u | n | n
COc1ccccc1C1=Nn2c(nnc2-c2ccccc2O)SC1 | x | x | n | n | x
C[n+]1cc(C(O)(c2ccccc2)c2ccccc2)n2ccccc21 | x | x | u | n | x
Cc1cc2c(s1)c1cnn(Cc3c(Cl)ccc(C)c3F)c(=O)c1n2C | x | x | n | n | x
COc1ccc(C2c3c(ncn(CCCc4ccccc4)c3=N)Oc3ccc4ccccc4c32)cc1OC (centres undefined) | x | x | n | n | x
COc1cccc(C(=O)NC(=S)Nc2ccc(N3CCCC3)cc2)c1 | n | n | x | n | n
CCCC(=O)N1CCN(c2ccc(NC(=S)NC(=O)c3cccc(C)c3)cc2)CC1 | n | n | 15µM | n | n
Cc1nc(N2CCN(C(=O)c3ccco3)CC2)c2c3c(sc2n1)CCCC3 | n | u | u | n | n
O=C(c1ccco1)N1CCN(c2nc(C3CC3)nc3sc4c(c23)CCCC4)CC1 | n | n | 23µM | u | n
Cc1nc(N2CCN(C(=O)c3cccs3)CC2)c2c3c(sc2n1)CCCC3 | n | n | 18µM | u | n
CCOC(=O)c1nc(N2CCN(C(=O)OCC)CC2)c2c3c(sc2n1)CCCC3 | n | n | 26µM | n | n
O=C(c1ccco1)N1CCN(c2nc(C3CC3)nc3c2nnn3Cc2ccccc2Cl)CC1 | n | n | 16µM | n | n
O=C(c1ccco1)N1CCC(c2nc3c(nnn3Cc3ccccc3Cl)c(=O)[nH]2)CC1 | n | n | n | n | n
COc1ccc(NC(=O)c2oc3ccccc3c2NC(=O)C23CC4CC(CC(C4)C2)C3)c(OC)c1 | x | n | n | n | n
Cc1[nH]c2ccc(-c3nnc(SCC(=O)c4ccc(F)cc4)o3)cc2c1C | n | n | u | n | n
Cc1cc(C)c(C)c(C(=O)CSc2nnc(-c3ccc4[nH]c(C)c(C)c4c3)o2)c1C | n | n | 12µM | u | n
Cc1cc2c(s1)c1cnn(Cc3ccc(C(C)C)cc3)c(=O)c1n2C | x | x | n | n | x
O=C(CSc1nnc(COc2ccc(Cl)cc2)n1Cc1ccco1)c1ccccc1F | n | n | 13µM | u | n
Clc1ccc(OCc2nnc(SCc3nc4ccccc4[nH]3)n2Cc2ccco2)cc1 | n | u | 18µM | u | n
CCn1c(COc2ccc(C)cc2)nnc1SCc1nc2ccccc2[nH]1 | n | n | 18µM | n | n
Clc1cccc(-c2nnc(SCc3nc4ccccc4[nH]3)n2Cc2ccco2)c1 | n | n | n | n | n
Cn1cc(P(=O)(c2ccccc2)c2ccccc2)c2ccccc21 | x | x | n | n | x
Cc1c(CC(=O)NCc2ccc(F)cc2)c(=O)oc2cc(O)c(Cl)cc12 | x | n | n | n | n
CC1(C)CC(N2CCN(Cc3ccccc3)CC2)=CC(=[N+]2CCCCC2)C1 | n | u | 18µM | n | n
